50 compounds from patent publication US20260382586A1, “DUAL INHIBITORS OF SIGMA-1 RECEPTOR AND SOLUBLE EPOXIDE HYDROLASE AND THEIR USE IN THE TREATMENT OF PAIN” (published 2026) can be followed below.

Sequences of proteins named here, by UniProt entry; tags and fusion partners are left off. A change or cut given only in a name is not applied to a line headed by its entry.
UniProt P34913, whole entry: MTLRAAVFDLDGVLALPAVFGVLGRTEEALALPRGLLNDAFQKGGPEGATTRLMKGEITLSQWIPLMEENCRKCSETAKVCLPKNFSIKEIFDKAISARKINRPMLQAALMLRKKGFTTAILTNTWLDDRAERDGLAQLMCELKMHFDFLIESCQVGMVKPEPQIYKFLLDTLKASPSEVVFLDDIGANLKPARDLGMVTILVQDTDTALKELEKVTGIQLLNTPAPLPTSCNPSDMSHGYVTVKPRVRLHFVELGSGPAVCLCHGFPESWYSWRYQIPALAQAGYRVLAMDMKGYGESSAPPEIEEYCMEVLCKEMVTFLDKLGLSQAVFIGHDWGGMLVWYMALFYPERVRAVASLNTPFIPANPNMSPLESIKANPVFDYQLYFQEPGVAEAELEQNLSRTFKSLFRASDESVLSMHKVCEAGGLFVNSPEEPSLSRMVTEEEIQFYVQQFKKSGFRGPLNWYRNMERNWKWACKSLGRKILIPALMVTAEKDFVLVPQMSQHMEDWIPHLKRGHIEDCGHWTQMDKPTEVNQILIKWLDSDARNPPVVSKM
UniProt Q99720, whole entry: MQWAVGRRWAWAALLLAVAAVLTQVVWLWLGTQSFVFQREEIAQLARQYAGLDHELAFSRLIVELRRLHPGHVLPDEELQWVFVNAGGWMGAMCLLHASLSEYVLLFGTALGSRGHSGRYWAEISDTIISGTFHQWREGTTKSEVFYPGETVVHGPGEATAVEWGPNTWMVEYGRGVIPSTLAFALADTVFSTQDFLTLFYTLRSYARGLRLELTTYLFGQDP

What is called IC50 is the point on the concentration scale where inhibition reaches its midpoint. The Ki is the equilibrium dissociation constant of an inhibitor or competing ligand from its target.

The target in one experiment is recombinant human sEH (Homo sapiens, UniProt P34913). Put plainly: Inhibition of sEH (fluorescent assay, CMNPC substrate). To be noted: for IC50: read-out: Inhibition sEH (IC50), human sEH, pH 7.4, 30 °C, [S]=5 μM.
For another experiment, the target named is human S1R (Homo sapiens, UniProt Q99720). Put plainly: Binding to S1R ([3H]-(+)-pentazocine, transfected HEK-293 membranes). To be noted: read-out: Binding S1R (Ki); human S1R, [3H]-(+)-pentazocine 5 nM, 37 °C, 120 min, pH 8.

Consider `O=C(NCc1ccc(Cl)cc1Cl)C1CCN(Cc2ccsc2)CC1`, for which the half-maximal inhibitory concentration (IC50) on recombinant human sEH was in the range of 10 to 50 nM. At human S1R, the Ki was less than 50 nM.
On the same counts, the results for `COc1ccc(CN2CCC(C(=O)NCc3ccc(Cl)cc3C(F)(F)F)CC2)cc1` are less than 10 nM and less than 50 nM.
As to `CS(=O)(=O)c1ccc(CNC(=O)C2CCN(Cc3ccccc3)CC2)c(Cl)c1`, on recombinant human sEH, the IC50 was less than 10 nM. Also, on human S1R, the Ki fell in the range of 150 to 400 nM.
On the same counts, the results for `O=C(NCc1ccc(Cl)cc1Cl)C1CCN(Cc2ccc(F)cc2)CC1` are 10 to 50 nM and less than 50 nM.
For `O=C(NCc1ccc(Br)cc1C(F)(F)F)C1CCN(Cc2ccsc2)CC1` the same measures were less than 10 nM and less than 50 nM.
On the same counts, the results for `O=C(NCc1ccc(Cl)cc1Cl)C1CCN(Cc2ccc(I)cc2)CC1` are less than 10 nM and less than 50 nM.
For `O=C(NCc1ccc(Cl)cc1Cl)C1CCN(Cc2cccc(F)c2)CC1`, the IC50 at recombinant human sEH is less than 10 nM. The Ki at human S1R was in the range of 50 to 150 nM.
For the compound `CN1CCN(CCc2ccc(Cl)c(Cl)c2)CC1`, on recombinant human sEH, the IC50 was greater than 1000 nM. Also, the “sEH activity in words” value at recombinant human sEH (summary of Table 1) is “inactive in sEH”. Moreover, on human S1R, the Ki lay in the range of 50 to 150 nM.
In the case of `N#Cc1ccc(CNC(=O)C2CCN(Cc3ccncc3)CC2)c(C(F)(F)F)c1`, the IC50 on recombinant human sEH is less than 10 nM. Besides, the Ki at human S1R was 150 to 400 nM.
On the same counts, the results for `N#Cc1ccc(CNC(=O)C2CCN(Cc3cccc(Cl)c3)CC2)c(C(F)(F)F)c1` are less than 10 nM and 150 to 400 nM.
For `O=C(NCc1ccc(Cl)cc1OC(F)(F)F)C1CCN(Cc2ccc(F)cc2)CC1` the same measures were less than 10 nM and less than 50 nM.
For `N#Cc1ccc(CNC(=O)C2CCN(Cc3ccsc3)CC2)c(C(F)(F)F)c1` the same measures were less than 10 nM and 50 to 150 nM.
Regarding `O=C(NCc1ccc(F)cc1C(F)(F)F)C1CCN(Cc2ccsc2)CC1`, the IC50 at recombinant human sEH was 10 to 50 nM. The inhibition constant (Ki) on human S1R is less than 50 nM.
For `O=C(NCc1cccc(Cl)c1Cl)C1CCN(Cc2ccccc2)CC1`, the IC50 at recombinant human sEH was less than 10 nM. Besides, the Ki at human S1R is less than 50 nM.
On the same counts, the results for `N#Cc1ccc(CNC(=O)C2CCN(Cc3ccc(Cl)cc3Cl)CC2)c(C(F)(F)F)c1` are less than 10 nM and less than 50 nM.
On to `COc1ccc(CN2CCC(C(=O)NCc3ccc(F)cc3C(F)(F)F)CC2)cc1`, for which the IC50 on recombinant human sEH fell in the range of 10 to 50 nM. Besides, the Ki on human S1R was less than 50 nM.
In the case of `O=C(NCc1ccc(Br)cc1C(F)(F)F)C1CCN(Cc2ccccc2)CC1`, at recombinant human sEH, the IC50 was less than 10 nM. Also, the Ki at human S1R was in the range of 50 to 150 nM.
For `COc1ccc(CNC(=O)C2CCN(Cc3ccsc3)CC2)c(OC(F)(F)F)c1` the same measures were less than 10 nM and 50 to 150 nM.
On the same counts, the results for `O=C(NCc1ccc(Cl)cc1Cl)C1CCN(Cc2ccc(F)c(F)c2)CC1` are 10 to 50 nM and less than 50 nM.
For `O=C(NCc1ccc(Cl)cc1Cl)C1CCN(c2ncccn2)CC1` the same measures were 10 to 50 nM and greater than 1000 nM.
Regarding `O=C(NCc1ccc(Cl)cc1C(F)(F)F)C1CCN(Cc2ccc(F)cc2)CC1`, at recombinant human sEH, the IC50 lay in the range of 10 to 50 nM. Also, the Ki at human S1R is less than 50 nM.
For `N#Cc1ccc(CNC(=O)C2CCN(Cc3ccc(F)cc3)CC2)c(Cl)c1` the same measures were 10 to 50 nM and less than 50 nM.
For `O=C(NCc1ccc(Br)cc1C(F)(F)F)C1CCN(Cc2ccc(F)cc2)CC1` the same measures were less than 10 nM and less than 50 nM.
On the same counts, the results for `O=C(NCc1ccc(Cl)cc1Br)C1CCN(Cc2ccccc2)CC1` are 10 to 50 nM and less than 50 nM.
Consider `O=C(NCc1ccc(Br)cc1Cl)C1CCN(Cc2ccccc2)CC1`, for which, at recombinant human sEH, the IC50 fell in the range of 10 to 50 nM. The Ki at human S1R lay in the range of 50 to 150 nM.
For `O=C(NCc1cccc(F)c1Cl)C1CCN(Cc2ccccc2)CC1` the same measures were 50 to 100 nM and less than 50 nM.
For `N#Cc1ccc(CNC(=O)C2CCN(Cc3ccc(Cl)c(Cl)c3)CC2)c(C(F)(F)F)c1`, the IC50 on recombinant human sEH is less than 10 nM. On human S1R, the Ki lay within 50 to 150 nM.
On the same counts, the results for `COc1ccc(CN2CCC(C(=O)NCc3ccc(C#N)cc3C(F)(F)F)CC2)cc1` are less than 10 nM and 50 to 150 nM.
On the same counts, the results for `N#Cc1ccc(CNC(=O)C2CCN(Cc3ccc(C(F)(F)F)cc3)CC2)c(C(F)(F)F)c1` are less than 10 nM and 50 to 150 nM.
For `N#Cc1ccc(CNC(=O)C2CCN(Cc3ccc(F)cc3)CC2)c(OC(F)(F)F)c1`, the IC50 on recombinant human sEH is less than 10 nM. Besides, the Ki at human S1R is less than 50 nM.
For `COc1ccc(CN2CCC(C(=O)NCc3ccc(Br)cc3C(F)(F)F)CC2)cc1` the same measures were less than 10 nM and less than 50 nM.
On the same counts, the results for `O=C(NCc1ccc(Br)cc1OC(F)(F)F)C1CCN(Cc2cccc(F)c2)CC1` are less than 10 nM and less than 50 nM.
For `N#Cc1ccc(CNC(=O)C2CCN(Cc3cccs3)CC2)c(C(F)(F)F)c1`, the IC50 on recombinant human sEH is less than 10 nM. In addition, the Ki on human S1R is 50 to 150 nM.
On to `O=C(NCc1cccc(F)c1C(F)(F)F)C1CCN(Cc2ccccc2)CC1`, for which the IC50 at recombinant human sEH was 10 to 50 nM. Also, the Ki at human S1R is less than 50 nM.
For `O=C(NCc1ccc(Br)cc1OC(F)(F)F)C1CCN(Cc2ccccc2)CC1` the same measures were less than 10 nM and less than 50 nM.
For `N#Cc1ccc(CNC(=O)C2CCN(Cc3ccc(Cl)cc3)CC2)c(C(F)(F)F)c1` the same measures were 10 to 50 nM and less than 50 nM.
As for `O=C(NCc1cc(F)c(Cl)cc1Cl)C1CCN(Cc2ccccc2)CC1`, the IC50 at recombinant human sEH lay in the range of 10 to 50 nM. Moreover, the Ki on human S1R is less than 50 nM.
For `COc1ccc(CNC(=O)C2CCN(Cc3ccc(F)cc3)CC2)c(OC(F)(F)F)c1` the same measures were less than 10 nM and 50 to 150 nM.
For `N#Cc1ccc(CNC(=O)C2CCN(CCc3ccccc3)CC2)c(Cl)c1` the same measures were 50 to 100 nM and less than 50 nM.
Consider `COc1ccc(CN2CCC(C(=O)NCc3ccc(Cl)cc3Cl)CC2)cc1`, for which, at recombinant human sEH, the IC50 is less than 10 nM. In addition, the inhibition constant (Ki) at human S1R is less than 50 nM.
On the same counts, the results for `O=C(NCc1ccc(Cl)cc1C(F)(F)F)C1CCN(Cc2ccccc2)CC1` are less than 10 nM and less than 50 nM.
On the same counts, the results for `O=C(NCc1ccc(Br)cc1F)C1CCN(Cc2ccccc2)CC1` are 50 to 100 nM and 50 to 150 nM.
For `N#Cc1ccc(CNC(=O)C2CCN(CCc3ccccc3)CC2)c(C(F)(F)F)c1` the same measures were less than 10 nM and 50 to 150 nM.
Consider `O=C(NCc1ccc(Cl)cc1Cl)C1CCN(Cc2ccc(C(F)(F)F)cc2)CC1`, for which the IC50 at recombinant human sEH is less than 10 nM. Moreover, on human S1R, the Ki lay in the range of 50 to 150 nM.
For `O=C(NCc1ccc(F)cc1C(F)(F)F)C1CCN(Cc2ccc(F)cc2)CC1` the same measures were 10 to 50 nM and less than 50 nM.
On the same counts, the results for `N#Cc1ccc(CNC(=O)C2CCN(Cc3ccc4ccccc4c3)CC2)c(C(F)(F)F)c1` are less than 10 nM and 50 to 150 nM.
On the same counts, the results for `O=C(NCc1ccc(Cl)cc1Cl)C1CCN(Cc2ccc(Cl)c(Cl)c2)CC1` are less than 10 nM and 50 to 150 nM.
As to `COc1ccc(CN2CCC(C(=O)NCc3ccc(OC)cc3OC(F)(F)F)CC2)cc1`, on recombinant human sEH, the concentration for half-maximal inhibition (IC50) is less than 10 nM. Also, the Ki at human S1R fell in the range of 50 to 150 nM.
On the same counts, the results for `O=C(NCc1ccc(Br)cc1OC(F)(F)F)C1CCN(Cc2ccsc2)CC1` are less than 10 nM and less than 50 nM.
On the same counts, the results for `O=C(NCc1cccc(C(F)(F)F)c1Cl)C1CCN(Cc2ccccc2)CC1` are 10 to 50 nM and less than 50 nM.
